Measurements published in patent US8053603B2, “Tetralone-based monoamine reuptake inhibitors” (Sunovion Pharmaceuticals Inc., priority 2006, dated 2011).

Amino acid sequences for entries named in this document (tags omitted).
UniProt P23975, whole entry: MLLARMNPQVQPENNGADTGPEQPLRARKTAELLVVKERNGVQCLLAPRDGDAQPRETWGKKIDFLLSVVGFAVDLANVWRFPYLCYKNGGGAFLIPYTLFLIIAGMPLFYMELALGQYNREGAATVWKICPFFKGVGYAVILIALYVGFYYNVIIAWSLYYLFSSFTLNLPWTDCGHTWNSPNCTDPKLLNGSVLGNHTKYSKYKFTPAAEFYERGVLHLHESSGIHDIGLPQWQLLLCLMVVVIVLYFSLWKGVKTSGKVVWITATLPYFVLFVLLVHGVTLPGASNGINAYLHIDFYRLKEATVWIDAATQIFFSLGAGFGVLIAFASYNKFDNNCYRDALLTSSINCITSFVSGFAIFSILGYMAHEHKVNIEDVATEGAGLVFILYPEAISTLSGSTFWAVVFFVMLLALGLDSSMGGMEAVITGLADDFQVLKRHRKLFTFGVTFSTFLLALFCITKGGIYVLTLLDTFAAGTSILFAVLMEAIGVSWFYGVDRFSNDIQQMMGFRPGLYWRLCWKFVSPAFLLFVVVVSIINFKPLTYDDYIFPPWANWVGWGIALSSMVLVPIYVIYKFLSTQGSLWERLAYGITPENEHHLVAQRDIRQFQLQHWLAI
UniProt P31645, whole entry: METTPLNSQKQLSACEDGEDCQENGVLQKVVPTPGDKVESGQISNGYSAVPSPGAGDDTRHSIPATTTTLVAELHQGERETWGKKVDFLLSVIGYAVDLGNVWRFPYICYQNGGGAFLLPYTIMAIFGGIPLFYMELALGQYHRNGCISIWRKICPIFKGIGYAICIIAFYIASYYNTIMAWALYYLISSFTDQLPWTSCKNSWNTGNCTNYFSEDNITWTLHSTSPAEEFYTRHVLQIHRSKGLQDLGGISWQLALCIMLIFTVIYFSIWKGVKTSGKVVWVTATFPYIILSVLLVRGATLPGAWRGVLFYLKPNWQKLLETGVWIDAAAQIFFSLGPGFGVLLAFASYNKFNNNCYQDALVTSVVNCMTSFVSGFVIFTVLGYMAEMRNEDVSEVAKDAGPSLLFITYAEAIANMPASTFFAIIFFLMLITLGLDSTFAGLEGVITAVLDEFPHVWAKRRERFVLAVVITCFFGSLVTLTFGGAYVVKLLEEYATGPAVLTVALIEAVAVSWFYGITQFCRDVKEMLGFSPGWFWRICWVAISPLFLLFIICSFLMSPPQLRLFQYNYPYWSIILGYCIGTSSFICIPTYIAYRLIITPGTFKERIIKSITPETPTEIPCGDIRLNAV

Assays:
[1] = target: T1, recombinant human norepinephrine transporter (Homo sapiens, UniProt P23975); test: Norepinephrine functional uptake assay for human reuptake transporter; format: cell-based; settings: [3H]norepinephrine uptake, HEK293 or MDCK cells expressing human norepinephrine transporter; read-out: Human IC50 (nM) NET
T1 construct: expressed in transfected cells; host or cells: HEK293 or MDCK

[2] = target: T2, recombinant human serotonin transporter (Homo sapiens, UniProt P31645); test: Serotonin functional uptake assay for human reuptake transporter; format: cell-based; settings: read-out: Human IC50 (nM) SERT
T2 construct: expressed in transfected cells; host or cells: HEK-293

[3] = [3H]serotonin uptake, HEK-293 cells expressing human serotonin transporter

NCCC1Cc2ccccc2C(c2ccc(Cl)c(Cl)c2)C1 (single isomer, unassigned) [Compound 25a, 2-(1,3-cis)-1-(3,4-dichlorophenyl)-(1,2,3,4-tetrahydronaphthalen-3-yl)ethanamine]
IC50 [1]: 26 nM

NCCC1Cc2ccccc2C(c2ccc(Cl)c(Cl)c2)C1 (single isomer, unassigned) [Compound 25b, 2-(1,3-cis)-1-(3,4-dichlorophenyl)-(1,2,3,4-tetrahydronaphthalen-3-yl)ethanamine]
IC50 [1]: 158 nM

N[C@H]1Cc2ccccc2[C@H](c2ccc(Cl)c(Cl)c2)C1 [Compound 6a, [4-(3,4-dichlorophenyl)-1,2,3,4-tetrahydro-naphthalen-2-yl]-amine]
IC50 [2]: 46 nM

CN[C@H]1Cc2ccccc2[C@H](c2ccc(Cl)c(Cl)c2)C1 [Compound 7a, 4-(3,4-dichlorophenyl)-N-methyl-1,2,3,4-tetrahydronaphthalen-2-amine]
IC50 [2, 3]: 6 nM

CN(C)[C@H]1Cc2ccccc2[C@H](c2ccc(Cl)c(Cl)c2)C1 [Compound 8a, [4-(3,4-dichlorophenyl)-1,2,3,4-tetrahydro-naphthalen-2-yl]-dimethylamine]
IC50 [2]: 7 nM

NC[C@@H]1Cc2ccccc2[C@H](c2ccc(Cl)c(Cl)c2)C1 [Compound 14a, (4-(3,4-dichlorophenyl)-1,2,3,4-tetrahydronaphthalen-2-yl)methanamine]
IC50 [2, 3]: 2 nM

CNC[C@H]1Cc2ccccc2[C@H](c2ccc(Cl)c(Cl)c2)C1 [Compound 15a, [4-(3,4-dichlorophenyl)-1,2,3,4-tetrahydro-naphthalen-2-ylmethyl]-methylamine]
IC50 [2, 3]: 9 nM

Read-outs that look alike come from different tables or passages of the source.
